Columns and labels:
[1] = target: T1, EGFR (Homo sapiens, UniProt P00533); experiment: Blocking of EGF-induced EGFR autophosphorylation, immunoprecipitation and anti-pTyr immunoblot; format: cell-based; details: 2 nM, 50 ng/ml EGF
T1 construct: EGF receptors were immunoprecipitated using a specific mouse monoclonal antibody; endogenous in cells; host or cells: Colo205 and Huh-7 cells

[2] = tested on: EGFR-positive Huh-7 cells; experiment: Blocking of Cetuximab binding to cells, flow cytometry; details: preincubation with 0.5 μM
Description: “scFv” represents an anti-EGFR specific antibody fragment used for competition.
5×10^5 cells were suspended in PBA buffer (PBS, 0.025% BSA, 0.02% sodium azide) and incubated for 1 h at 4° C. with the indicated scTRAIL fusion proteins (2 μg/ml). After washing the cells three times with PBA buffer, bound fusion proteins were detected by anti-human TRAIL mAb MAB687 (2.5 μg/ml, R&D Systems) and fluorescein isothiocyanate-labelled rabbit anti-mouse IgG Ab (1:200, Sigma-Aldrich), followed by three washing steps with PBA each. […] Expression of TRAIL receptors was detected by anti-TRAIL R1 mAb MAB347 and anti-TRAIL R2 mAb MAB6311 (4 μg/ml each, R&D Systems) in conjunction with anti-mouse IgG-FITC. EGFR expression was detected by a phycoerythrin-labelled anti-human EGFR mAb sc-101 (4 μg/ml, Santa Cruz Biotech., Santa Cruz, Calif.) (see FIG. 4).

[3] = tested on: TRAILR+, EGFR negative Jurkat cells; experiment: Binding to Jurkat cells, flow cytometry; details: data not shown
Description: Therefore, we determined dissociation constants of both fusion proteins on EGFR-positive, DR4+5+NCI-H460 cells under equilibrium binding conditions at 4° C. by indirect immunofluorescence flow cytometry with an anti-TRAIL antibody. […] In principle, the measured KD values reflect cell surface interactions of both functional domains in the fusion protein, the EGFR targeting domain (Component B) and the TRAIL domain, (components A), with their respective receptors.

[4] = Pharmacokinetics in CD1 mice, 25 μg i.v., ELISA of serum samples; format: in vivo
Description: 25 μg of protein were injected i.v. in CD1 mice and serum samples were taken at the depicted time points followed by detection of scTRAIL molecules via ELISA.
To this end, 25 μg of fusion proteins were injected i.v. in CD1 mice and serum samples were analyzed at certain time points after injection by ELISA assay (FIG. 19).

[5] = tested on: caspase-3; experiment: Caspase-3 activity in liver biopsies of treated mice; format: in vivo, CD1 mice; details: after 24 hrs, i.p.
Description: FIG. 9: EGFR specific TRAIL fusion proteins lack hepatotoxic activity. Groups of 3 CD1 mice were treated intraperitonally with indicated fusion proteins or control reagents: negative control: PBS; positive control: aggregated FasL (CD95L) fusion protein. • (A) Plasma samples were prepared after 4 h and 24 h and the activity of alanine aminotransferase (ALT) was assayed using an enzymatic assay (Bioo Scientific, Austin, Tex.). Dashed line indicates upper normal level of ALT (physiologic range in adult human: 35-50 U/L). (B) Mice were sacrificed after 24 h except for positive control (animals treated with an aggregated FasL (CD95L) fusion protein show phenotypic signs of severe systemic toxicity after 2-4 hrs and die after ˜5 hrs, samples were taken after 4 hrs) and liver biopsies were taken for determination of caspase-3 activity using a specific AMC-coupled peptide substrate (Enzo Lifesciences, Lörrach, Germany).
Blood samples were taken from the tail after 4 h and 24 h and incubated on ice. […] Activity of alanine aminotransaminase was determined by an enzymatic assay (BIOO Scientific, Austin, Tex., USA). […] 10 μg of protein were analyzed by conversion of the fluorogenic substrate Ac-DMQD-AMC (Enzo Life Sciences). Caspase activity in PHH and Huh-7 cells was determined as published by Seidel et al. (Hepatology 2005, 42:113-120). […]

[6] = tested on: Colo205 cells; experiment: Growth of Colo205 cells over four days, MTT; format: cell-based; details: presence of neutralizing anti-TRAIL antibodies (mAb 2E5)
Description: After 16 h, cell viability was determined using MTT staining (Colo 205) or crystal violet staining (Huh-7) and data were normalized using bortezomib-treated cells as control (mean SEM, n=3). (B) 1×10^4 Colo205 cells per well were grown in 96-well plates using medium with 0.1% FCS. […] (C) 1×10^4 Huh-7 cells per well were grown in 96-well plates and treated with 20 ng/ml bortezomib or with a combination of bortezomib and 10 μM zVADfmk.

[7] = tested on: EGFR low/negative HepG2 cells; experiment: Target-independent induction of cell death, HepG2, crystal violet; format: cell-based
Description: Cell viability was determined using crystal violet staining. Results from four independent experiments are shown (mean±S.E.M.). (B) Jurkat cells (1×10^5/well) were used for a similar experiment as described in (A). Jurkat cells were not sensitized. Results from three independent experiments are shown (mean±S.E.M.). Viability of Jurkat cells was determined using the MTT assay.
As a positive control, cells were killed with 0.25% Triton X-100. Cell death assays with Huh-7 and HepG2 cells were performed in the absence (FIG. 6, Jurkat cells) or presence of Bortezomib (FIG. 7, Huh-7: 250 ng/ml, FIG. 6, HepG2: 500 ng/ml, FIG. 18, Huh-7: 250 ng/ml), Selleck Chemicals, Houston, Tex.). Bortezomib was added 30 min prior incubation with the proapoptotic ligands to sensitize cells for the induction of cell death (FIGS. 6, 7). Alternatively, cells were preincubated for 30 min with the indicated concentrations of TRAIL fusion proteins followed by addition of serial dilutions of Bortezomib (FIG. 8). TRAIL only treated cells are shown in each panel for the applied TRAIL concentration (Bortezomib 0 ng/ml) (FIG. 8). After 16 h incubation, cell viability was determined either by crystal violet staining (Huh-7, HepG2) or the MTT method (Jurkat) (Wuest et al., 2002). In the latter case a lysis buffer consisting of 15% SDS in DMF/H2O (1:1), pH 4.5 (with […]) acetic acid) was used.

B1: SEQ ID NO: 102: EGFR-specific VH-VL-scTRAIL fusion protein with linker L shortened to GGGGS; divalent, dimeric TRAIL fusion protein (protein)
chain: MDWTWRVFCLLAVAPGAHSLEASDYKDDDDKGAEVQLVESGGGLVQPGGSLRLSCAASGFSLTNYGVHWVRQAPGKGLEWLGVIWSGGNTDYNTPFTSRFTISRDNSKNTLYLQMNSLRAEDTAVYYCARALTYYDYEFAYWGQGTTVTVSSGGGGSDIQLTQSPSFLSASVGDRVTITCRASQSIGTNIHWYQQKPGKAPKLLIKYASESISGVPSRFSGSGSGTEFTLTISSLQPEDFATYYCQQNNNWPTTFGAGTKLEIKRAAAEFTRGTSEETISTVQEKQQNISPLVRERGPQRVAAHITGTRGRSNTLSSPNSKNEKALGRKINSWESSRSGHSFLSNLHLRNGELVIHEKGFYYIYSQTYFRFQEEIKENTKNDKQMVQYIYKYTSYPDPILLMKSARNSCWSKDAEYGLYSIYQGGIFELKENDRIFVSVTNEHLIDMDHEASFFGAFLVGGGGSGGGSTSEETISTVQEKQQNISPLVRERGPQRVAAHITGTRGRSNTLSSPNSKNEKALGRKINSWESSRSGHSFLSNLHLRNGELVIHEKGFYYIYSQTYFRFQEEIKENTKNDKQMVQYIYKYTSYPDPILLMKSARNSCWSKDAEYGLYSIYQGGIFELKENDRIFVSVTNEHLIDMDHEASFFGAFLVGGGGSGGGSTSEETISTVQEKQQNISPLVRERGPQRVAAHITGTRGRSNTLSSPNSKNEKALGRKINSWESSRSGHSFLSNLHLRNGELVIHEKGFYYIYSQTYFRFQEEIKENTKNDKQMVQYIYKYTSYPDPILLMKSARNSCWSKDAEYGLYSIYQGGIFELKENDRIFVSVTNEHLIDMDHEASFFGAFLVG
modifications: VH-VL(EGFR)-scTRAIL fusion protein
**Q.** Which “blocking of EGF-induced EGFR autophosphorylation” value ([1]; Colo205 cells) does the source give for B1 here?
**A.** Functional blocking of EGF-stimulated receptor activation

**Q.** What about the “blocking of EGF-induced EGFR autophosphorylation” value ([1]; Huh-7 cells) of the same molecule?
**A.** Functional blocking of EGF-stimulated receptor activation

**Q.** What about the “blocking of binding of labelled Cetuximab” value [2] of the same molecule?
**A.** can be blocked

**Q.** And the “binding signal on Jurkat cells” value [3]?
**A.** only very weak signals

**Q.** And the “in vivo serum half-life” value [4]?
**A.** about 3 hours

**Q.** And the “caspase-3 activity in liver” value [5]?
**A.** Lack of caspase activation

**Q.** And the “growth inhibition when apoptosis is prevented” value [6]?
**A.** only a marginal growth inhibition

**Q.** And the “influence of excess Cetuximab on apoptosis inducing activity” value ([7]; 70 nM Cetuximab, at least 7-fold excess)?
**A.** not influenced

**Q.** What about the “increase of bioactivity compared to SEQ ID NO: 96 or SEQ ID NO 97” value ([7]; on all cell lines analysed (target-negative HepG2, Jurkat)) of the same molecule?
**A.** approximately tenfold
